In experiment [1] the test system is Acinetobacter baumannii strain 30. Briefly: Checkerboard assay (FICI) with antibiotics, A. baumannii.
Experiment [2] relates to P. aeruginosa strain CFS-1292. The experiment in a line: Checkerboard assay (FICI) with antibiotics, P. aeruginosa. The note with it: P. aeruginosa CFS-1292, CAA + […] human serum.
Experiment [3] relates to Klebsiella pneumoniae strain 1139. Briefly: Checkerboard assay (FICI) with antibiotics, K. pneumoniae. The note with it: in combination with Unp2-M1.
Another experiment deals with P. aeruginosa (CFS 1292). Briefly: microbe, parasite or virus in culture. The format is cell-based. The following applies: Pseudomonas aeruginosa, read-out: MIC Untreated control.
The subject of experiment [4] is P. aeruginosa strain CFS-1292. The experiment in a line: microbe, parasite or virus in culture. The format is cell-based. The note with it: Pseudomonas aeruginosa, CFS1292.

≈ marks a conversion by molar mass, not a printed value.

The record followed here is patent US20220401514A1, “ANTIMICROBIAL, BACTERIOPHAGE-DERIVED POLYPEPTIDES AND THEIR USE AGAINST GRAM-NEGATIVE AND ACID-FAST BACTERIA” (CONTRAFECT CORPORATION, priority 2019, published 2022).

Take `NCC[C@H](O)C(=O)N[C@@H]1C[C@H](N)[C@@H](O[C@H]2O[C@H](CN)[C@@H](O)[C@H](O)[C@H]2O)[C@H](O)[C@H]1O[C@H]1O[C@H](CO)[C@@H](O)[C@H](N)[C@H]1O` [Amikacin]: the “Antibiotic MIC” value stood at 0.0625 µg/mL in experiment [1] (in combination with Chp2); 0.125 µg/mL in experiment [1] (in combination with Chp2-M1); 0.0625 µg/mL in experiment [1] (in combination with Chp4-M1); 0.125 µg/mL in experiment [1] (in combination with Chp6-M1); 0.0625 µg/mL in experiment [1] (in combination with Chp10-M1); 0.125 µg/mL in experiment [1] (in combination with Unp2-M1). Besides, the “Antibiotic MIC in checkerboard” value in experiment [2] (combined with Chp4-M1) stood at 0.125 µg/mL.

For `C[C@@H](O)[C@H]1C(=O)N2C(C(=O)O)=C(S[C@@H]3CN[C@H](C(=O)N(C)C)C3)[C@H](C)[C@H]12` [meropenem, reference compound], the “Antibiotic MIC” value in experiment [1] (in combination with Chp2) worked out at 0.0625 µg/mL; in experiment [1] (in combination with Chp2-M1) it was 0.0625 µg/mL; in experiment [1] (in combination with Chp4-M1) it was 0.125 µg/mL; in experiment [1] (in combination with Chp6-M1), 0.125 µg/mL; in experiment [1] (in combination with Chp10-M1), 0.0625 µg/mL; in experiment [1] (in combination with Unp2-M1), 0.125 µg/mL. For the same compound, the “Antibiotic MIC” value in experiment [3] turned out to be 0.03125 µg/mL.

Turning to `NC[C@H]1O[C@H](O[C@H]2[C@H](O)[C@@H](O[C@H]3O[C@H](CO)[C@@H](O)[C@H](N)[C@H]3O)[C@H](N)C[C@@H]2N)[C@H](N)C[C@@H]1O` [tobramycin, reference compound], the “Antibiotic MIC” value in experiment [1] (in combination with Chp4-M1) was 0.03125 µg/mL. In addition, the MIC with P. aeruginosa (CFS 1292) worked out at 0.125 µg/mL (≈ 0.267 µM); in experiment [4], 0.0625 µg/mL (≈ 0.134 µM). Moreover, the “Antibiotic MIC in checkerboard” value was 0.125 µg/mL in experiment [2] (combined with Chp2-M1); 0.125 µg/mL in experiment [2] (combined with Chp2); 0.125 µg/mL in experiment [2] (combined with Chp4-M1); 0.125 µg/mL in experiment [2] (combined with Chp6-M1); 0.0625 µg/mL in experiment [2] (combined with Chp10-M1); 0.125 µg/mL in experiment [2] (combined with Unp2-M1).
